Earlier results as cited in patent US20240246969A1, “HETEROCYCLIC DERIVATIVES AS CAMKK2 INHIBITORS” (Bristol-Myers Squibb Company, priority 2021, published 2024).

Chains of the proteins cited; added tags and fusions are not shown.
UniProt Q96RR4, whole entry: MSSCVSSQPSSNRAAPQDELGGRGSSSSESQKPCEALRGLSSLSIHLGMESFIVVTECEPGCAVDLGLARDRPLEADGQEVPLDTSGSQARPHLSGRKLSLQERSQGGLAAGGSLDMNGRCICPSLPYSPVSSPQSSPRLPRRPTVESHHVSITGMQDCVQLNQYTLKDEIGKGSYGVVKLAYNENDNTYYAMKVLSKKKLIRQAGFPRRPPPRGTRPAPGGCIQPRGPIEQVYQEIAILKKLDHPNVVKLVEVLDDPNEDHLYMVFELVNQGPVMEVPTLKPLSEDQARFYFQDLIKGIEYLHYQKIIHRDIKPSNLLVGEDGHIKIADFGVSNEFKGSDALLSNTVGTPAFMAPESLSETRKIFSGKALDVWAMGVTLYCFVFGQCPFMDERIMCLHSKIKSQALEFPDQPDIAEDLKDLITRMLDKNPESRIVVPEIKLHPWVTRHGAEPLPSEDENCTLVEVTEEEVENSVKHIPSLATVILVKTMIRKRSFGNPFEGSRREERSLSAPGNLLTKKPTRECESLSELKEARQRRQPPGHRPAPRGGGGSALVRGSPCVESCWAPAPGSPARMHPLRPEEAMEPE

Molecular target: CaMKK2 (Homo sapiens, UniProt Q96RR4)
Details: higher affinity for CaMKK2; cited from earlier work

O=C(O)c1ccc2c3c1cccc3c(=O)n1c3ccccc3nc21 [STO-609]
affinity for CaMKK2 than CaMKK1: approximately 5 fold
